Screening data deposited in PubChem by National Center for Advancing Translational Sciences (NCATS).
Most compounds without a hit are left out; they make up all but 2.9% or so of the library.
Rango release inh: inhibitors of RanGTP-induced Rango-importin beta complex dissociation; O95149+P62826; actives 0.071% (n = 340,000); Potency, µM (top dose mostly 46.1 µM), for the others: top-dose activity change, negative = inhibition; Biochemical FRET Rango-importin beta, RanGTP-induced dissociation; also: potency is read from the fitted curve at half-maximal effect; % of control where 0% means no effect; nearly all actives have a fitted effect of over 45% in size
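Compounds preincubate 5 min with complex of recombinant Rango and importin beta in PBS with 1 mM DTT. Ran (0.6 uM) loaded with 2 mM GTP plus 0.2 uM RCC1 starts dissociation; FRET is recorded 45 min later.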
PTAP TSG101 blk: blocks PTAP/TSG101 interaction to inhibit HIV-1 budding; Q99816; Fluorescence polarization, FITC-PTAP peptide / Tsg101 binding; Potency, µM (top dose mostly 115 µM), inactives show at the top dose activity change, negative = inhibition, usual class: inhibitors; 340,000 tested, under 10 active; AID 493005; active = well fitted inhibition curve with a large enough effect in the main read-out, with a control signal flat, not every such curve was filed as active; inconclusive = small, poorly fitted or top-dose-only effect, or effect the other way, or a change in a side signal; inactive = no such curve, though single readings can be large or run the other way; also: potency is read from the fitted curve at half-maximal effect; % of control where 0% means no effect
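Steps: Tsg101 binding domain dispensed (10 uM final), compounds pinned in DMSO, FITC-labeled PTAP-motif peptide added (50 nM final); after 20 min binding at room temperature, polarization measured.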
Mm-Cpn inhibitor: inhibitors of Methanococcus maripaludis chaperonin TRiC (MmCpn); purified Mm-Cpn ATPase, ADP Transcreener TR-FRET; Potency, µM (doses to about 76.9 µM), for the others: top-dose activity, negative = inhibition, most hits filed as inhibitors; actives 0.031% (n = 330,000); active = well fitted inhibition curve with a large enough effect; inconclusive = small, poorly fitted or top-dose-only effect; also: potency is read from the fitted curve at half-maximal effect; % is scaled to controls: 0 for no effect and ±100 for the full control effect; nearly all actives have a fitted effect of over 80% in size
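Inhibition of chaperonin ATP hydrolysis is measured as reduced ADP production, detected by competitive TR-FRET in which signal falls with ADP. Final enzyme 25 nM and ATP 10 uM, reacted 30 min at 37°C.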
Rango-impB inh: Rango-importin beta binding inhibition; Rango CFP/YFP FRET sensor + importin beta, 45 min; Potency, µM (highest dose often 92.2 µM), for inactives: top-dose inhibition of complex formation; actives 0.031% (n = 340,000);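 also: potency is read from the fitted curve at half-maximal effect; 0% = DMSO wells and 100% = buffer wells lacking importin beta; nearly all actives have a fitted effect of over 15% in size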
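FRET biosensor Rango (snurportin 1 IBB between N-terminal EYFP and C-terminal Cerulean), 50 nM in PBS/1 mM DTT/0.02% Tween-20/0.1% BSA, preincubated 5 min RT with compound; 0.125 microM importin beta added, 45 min RT, CFP/YFP FRET ratio read.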
D3 ag: D3 dopamine receptor (human) agonism | P35462 | max activation, % | actives 0.58% (n = 410,000) | D3R DiscoveRx beta-arrestin cells, luminescence, 90 min; in the data active = max activation above about 30%; also: 0% is about no effect
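Cells at 1500/well, incubated overnight, then treated with pinned compounds (dopamine as control) for 90 min at 37 degrees C. DiscoveRx reagent added for 30 - 60 minutes at room temperature; luminescence read.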
D3 antag: antagonists of human D3 dopamine receptor | max response, negative = inhibition, % | P35462 | D3R cells, DiscoveRx beta-arrestin luminescence, antagonist mode; stronger effect = lower value | actives 2.5% (n = 360,000); in the data active = max response below about -50%; inconclusive = no clear call, values can overlap the other calls; also: % is scaled to controls: 0 for no effect and ±100 for the full control effect
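Cells expressing the human receptor were seeded at 1500 cells/well, incubated overnight at 37 degrees C in 5% CO2, then exposed to library compounds with dopamine controls for 90 minutes at 37 degrees C before luminescent detection.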
Active calls of the source: *; u = inconclusive; x = not tested or not shown. Unless noted, calls follow the shape of the full dose curve.

SMILES	Rango release inh	PTAP TSG101 blk	Mm-Cpn inhibitor	Rango-impB inh	D3 ag	D3 antag
O=C(/C=C/c1ccccc1)c1ccccc1	6%	0%	-13%	3%	-15	-11
N#Cc1ccc(/C=C/C(=O)c2ccccc2)cc1	-2%	-8%	-6%	4%	-5	-70*
O=C(/C=C/c1ccccc1)/C=C/c1ccccc1	-5%	0%	-6%	0%	-1	-58*
O=C(/C=C/c1ccccc1)c1ccc2ccccc2c1	-5%	0%	x	0%	-19	-51*
CC(/C=C\c1ccccc1)=C/C(=O)O	9%	0%	5%	2%	4	-3
Cc1ccc(-c2cc(C(=O)Oc3ccc(C#N)cc3)no2)cc1	x	x	x	x	-7	x
CO[C@H]1C[C@H](O[C@H]2[C@H](C)[C@@H](O[C@@H]3O[C@H](C)C[C@H](N(C)C)[C@H]3O)[C@@H](C)C[C@]3(CO3)C(=O)[C@H](C)[C@@H](O)[C@@H](C)[C@@H](C)OC(=O)[C@@H]2C)O[C@@H](C)[C@@H]1O	x	x	x	x	7	x
O=C(NCc1cccc(F)c1)c1cccc2c1C(=O)c1ccc(N3CCOCC3)cc1S2(=O)=O	-11%	-1%	-5%	u	56*	21
O=C(NCc1ccccc1Cl)c1cccc2c1C(=O)c1ccc(-c3ccc(OC(F)(F)F)cc3)cc1S2(=O)=O	28%	-1%	-2%	1%	31*	54
COCCNC(=O)c1cccc2c1C(=O)c1ccc(N3CCOCC3)cc1S2(=O)=O	-6%	0%	-2%	46µM*	10	6

Full records, looked up by structure. Values in the order: Rango release inh | PTAP TSG101 blk | Mm-Cpn inhibitor | Rango-impB inh | D3 ag | D3 antag
O=C(/C=C/c1ccccc1)c1ccccc1 is entered as 6% | 0% | -13% | 3% | -15 | -11
COCCNC(=O)c1cccc2c1C(=O)c1ccc(N3CCOCC3)cc1S2(=O)=O is entered as -6% | 0% | -2% | 46µM* | 10 | 6
Cc1ccc(-c2cc(C(=O)Oc3ccc(C#N)cc3)no2)cc1 is entered as x | x | x | x | -7 | x

(more compounds)
SMILES	Rango release inh	PTAP TSG101 blk	Mm-Cpn inhibitor	Rango-impB inh	D3 ag	D3 antag
O=C(NCc1cc(C(F)(F)F)ccc1Cl)c1cccc2c1C(=O)c1ccc(-c3ccc(OC(F)(F)F)cc3)cc1S2(=O)=O	x	x	-21%	x	x	x
Cc1ccc(CNC(=O)c2cccc3c2C(=O)c2ccc(N4CCOCC4)cc2S3(=O)=O)cc1	u	5%	-13%	u	26	28
O=C(NCc1ccccc1C(F)(F)F)c1cccc2c1C(=O)c1ccc(N3CCOCC3)cc1S2(=O)=O	u	0%	0%	u	38*	73
O=C(NCc1ccccc1C(F)(F)F)c1cccc2c1C(=O)c1ccc(N3CCC(N4CCCCC4)CC3)cc1S2(=O)=O	x	x	x	x	6	12
CC(C)Cn1cc(NC(=O)NCc2ccccc2Cl)c2ccccc2c1=O	x	x	x	x	-1	x
CCCOc1ccc(C(=O)NNC(=S)NC(=O)c2cc(-c3ccccc3)nc3ccccc23)cc1	12%	-3%	-5%	2%	-7	-55*
O=C(Nc1cccnc1)c1cc(-c2cccnc2)nc2ccc(Br)cc12	-6%	-9%	-4%	-5%	55*	25
CCCc1cc(C(=O)NNC(=S)NCC)c2ccccc2n1	-8%	-2%	1%	1%	-11	-56*
CCNC(=S)NNC(=O)c1cc(-c2cc(C)ccc2C)nc2ccccc12	31%	-6%	2%	4%	3	23
COc1cccc(-c2cc(C(=O)Nc3cccnc3)c3ccccc3n2)c1	13%	-3%	-1%	8%	-2	7
Cc1cccc(NC(=S)NC(=O)c2cc(-c3ccccc3)nc3ccccc23)c1	-3%	-7%	0%	1%	-14	-54*
O=C(Nc1nc2c(F)cccc2s1)c1ccc2c(c1)OCCO2	x	x	x	x	-3	x
COc1ccc(Nc2cc(O)c3ncccc3c2)cc1	x	x	-2%	x	x	x
COc1cc(NC(=O)c2cc(-c3cccnc3)nc3ccc(Br)cc23)cc(OC)c1	-15%	-1%	-1%	-3%	36*	27
COCCNC(=O)c1cc(-c2cccnc2)nc2ccc(Br)cc12	19%	-4%	-1%	3%	-5	-2
O=C(Nc1ccncc1)c1cc(-c2cccc(Br)c2)nc2ccccc12	18%	-3%	0%	2%	31*	48
O=C(Nc1cccnc1)c1cc(-c2cccc(Br)c2)nc2ccccc12	-14%	-1%	-2%	-3%	3	22
